Paper PMC3541233 (PLoS ONE, 2013)

Sequences of proteins named here, by UniProt entry; tags and fusion partners are left off. Residues count along the entry.
UniProt Q3L245, 26-602: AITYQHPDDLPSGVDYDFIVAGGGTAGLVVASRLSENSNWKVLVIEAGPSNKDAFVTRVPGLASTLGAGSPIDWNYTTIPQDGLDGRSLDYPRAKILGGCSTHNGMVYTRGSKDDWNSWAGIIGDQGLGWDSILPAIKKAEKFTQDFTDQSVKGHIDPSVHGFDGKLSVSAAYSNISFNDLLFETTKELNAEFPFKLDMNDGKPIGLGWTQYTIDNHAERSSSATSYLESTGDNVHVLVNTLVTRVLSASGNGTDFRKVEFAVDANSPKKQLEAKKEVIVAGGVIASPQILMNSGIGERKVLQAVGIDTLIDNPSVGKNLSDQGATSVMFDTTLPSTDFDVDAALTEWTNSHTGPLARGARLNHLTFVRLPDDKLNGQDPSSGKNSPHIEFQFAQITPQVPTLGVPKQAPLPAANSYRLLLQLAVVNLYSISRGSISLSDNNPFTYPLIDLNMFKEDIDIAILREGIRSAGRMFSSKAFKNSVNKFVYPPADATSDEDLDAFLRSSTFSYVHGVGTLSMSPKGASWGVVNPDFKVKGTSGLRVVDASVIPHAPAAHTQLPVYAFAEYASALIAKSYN

Target: AmPDH (pyranose dehydrogenase, PDH) (Macropsalliota meleagris, UniProt Q3L245)
Design: gene pdh1

OC[C@H]1OC(O)[C@H](F)[C@@H](O)[C@@H]1O (stereo partly drawn) [2-fluoro-2-deoxy-D-glucose]
anaerobic reduction of enzyme FAD monitored at 463 nm: The rate of reduction of PDH by 2-fluoro-2-deoxy-D-glucose (2FG) was significantly slower
